Experimental findings from the DeepSol protein solubility set are described below.

The nature of this series: soluble on expression in E. coli; label from the status in PepcDB or PDB records.
As for “GSPGHMSGFRDFLLKPELLRAIVDCGFEHPSEVQHECIPQAILGMDVLCQAKSGMGKTAVFVLATLQQLEPVTGQVSVLVMCHTRELAFQISKEYERFSKYMPNVKVAVFFGGLSIKKDEEVLKKNCPHIVVGTPGRILALARNKSLNLKHIKHFILDEADKMLEQLDMRRDVQEIFRMTPHEKQVMMFSATLSKEIRPVCRKFMQDPMEIFVDDETKLTLHGLQQYYVKLKDNEKNRKLFDLLDVLEFNQVVIFVKSVQRCIALAQLLVEQNFPAIAIHRGMPQEERLSRYQQFKDFQRRILVATNLFGRGMDIERVNIAFNYDMPEDSDTYLHRVARAGRFGTKGLAITFVSDENDAKILNDVQDRFEVNISELPDEIDISSYIEQTR”, the “soluble on expression in E. coli” value is listed as “soluble”.
Take “GVEIETISPGDGRTFPKKGQTCVVHYTGMLQNGKKFDSSRDRNKPFKFRIGKQEVIKGFEEGAAQMSLGQRAKLTCTPDVAYGATGHPGVIPPNATLIFDVELLNLE”: the “soluble on expression in E. coli” value is listed as “soluble”.
For the sequence “MAASRRLMKELEEIRKCGMKNFRNIQVDEANLLTWQGLIVPDNPPYDKGAFRIEINFPAEYPFKPPKITFKTKIYHPNIDEKGQVCLPVISAENWKPATKTDQVIQSLIALVNDPQPEHPLRADLAEEYSKDRKKFCKNAEEFTKKYGEKRPVD”, the “soluble on expression in E. coli” value is reported as “soluble”.
On to “MAKGQSLQDPFLNALRRERVPVSIYLVNGIKLQGQIESFDQFVILLKNTVSQMVYKHAISTVVPSRPVSHHSNNAGGGTSSNYHHGSSAQNTSAQQDSEETE”, for which the “soluble on expression in E. coli” value is recorded as “soluble”.
As to “MGHHHHHHSHMFQRLNKMFVGEVSSSSNQEPEFNEKEDDEWILVDFIDTCTGFSAEEEEEEEDISEESPTEHPSVFSCLPASLECLADTSDSCFLQFESCPMEESWFITPPPCFTAGGLTTIKVETSPMENLLIEHPSMSVYAVHNSCPGLSEATRGTDELHSPSSPRVEAQNEMGQHIHCYVAALAAHTTFLEQPKSFRPSQWIKEHSERQPLNRNSLRRQNLTRDCHPRQVKHNGWVVHQPCPRQYNY”, the “soluble on expression in E. coli” value is “not soluble”.
Turning to “MTSRRDWQLQQLGITQWSLRRPGALQGEIAIAIPAHVRLVMVANDLPALTDPLVSDVLRALTVSPDQVLQLTPEKIAMLPQGSRCNSWRLGTDEPLSLEGAQVASPALTELRANPTARAALWQQICTYEHDFFPRND”, the “soluble on expression in E. coli” value is “not soluble”.
Under “QGEIAIAIPAHVRLVMVANDLPALTDPLVSDVLRALTVSPDQVLQLTPEKIAMLPQGSHCNSWRLGTDEPLSLEGAQVASPALTDLRANPTARAALWQQICTYEHDFFPRND” stands “soluble”; under “SKGQQKTAETEEGTVQIQEGAVATGEDPTSVAIASIQSAATFPDPNVKYVFRTENGGQVMYRVIQVSEGQLDGQTEGTGAISGYPATQSMTQAVIQGAFTSDDAVDTEGTAAETHYTYFPSTAVGDGAGGTTSGSTAAVVTTQGSEALLGQATPPGTGQFFVMMSPQEVLQGGSQRSIAPRTHPYSPKSEAPRTTRDEKRRAQHNEVERRRRDKINNWIVQLSKIIPDCSMESTKSGQSKGGILSKACDYIQELRQSNHRLSEELQGLDQLQLDNDVLRQQVEDLKNKNLLLRAQLRHHGLEVVIKNDSN”, “soluble”; under “SRDIRFANHETLQVIYPYTPQNDDELELVPGDFIFMSPMEQTSTSEGWIYGTSLTTGCSGLLPENYITKADECSTWIFHGS”, “soluble”.
